Data reported in patent US11766432B2, “Cleavable conjugates of catechol compounds and water-soluble polymers and methods of treatment using the same” (SERINA THERAPEUTICS, INC., priority 2018, dated 2023).

Test system: skin at injection site

Substance: POZ10p20k[Apo (4′-triazolebutanoate)(mono-ethyl succinate]10 [POZ-Apomorphine G]
- tolerability after SC injection (primates, SC injection 3.0 mg/kg (apomorphine equivalents), multiple doses): well tolerated
- skin at the site of injection 12 hours after the third dose (day 14) (weekly SC injection 3.0 mg/kg (apomorphine equivalents)): appeared normal with no sign of erythema and swelling
